How the values were obtained:
CI-CB-CD34+ cells = assay: Biological activity of maximal compound dosages in CI-CB-CD34+ cells; format: cell-based, human; conditions: 10 μM dose, DMSO = 1.00
Description: (§1) The stock for each compound was at 10 mM and were diluted to 100 μM with RMPI+GCMSF (2% DMSO). Cells were collected and resuspended in 8 mL of RPMI+GMCSF at a concentration of 1×10^6 cells/mL. For the TF1 cells, at each well of a 6-well plate were added 1 mL of cells, 300 μL of 100 μM compound dilution, and 1.7 mL of RMPI+GCMSF+1.5% DMSO (1% final DMSO concentration in 3 mL total). One mL of the CI-CB-CD34+ cells, 300 μL of 100 μM compound dilution, and 700 μL of RMPI+GCMSF ([…]) were added to each well of a 6-well plate.
(§2) Compound dilutions were performed as described in Example 1. […] In a 6-well format, there were 1 million cells/well=1 million cells/ml=1000 cells/pl. […].

TF1 cells = assay: Biological activity of maximal compound dosages in TF1 cells; format: cell-based; conditions: 10 μM dose, DMSO = 1.00
Description: as §1, §2

[1] = tested on: primary human hepatocytes; assay: RNA-seq of primary human hepatocytes treated with 39 small molecules (pilot and validation); conditions: for significant modulation of gene expression: RNA-seq, p-value≤0.05, primary human hepatocytes, the modulated genes are listed in the block
[2] = tested on: primary human hepatocytes
hepatocytes = conditions: log 2 fold change in CYP2C19 gene expression, RNA-seq

Row | Molecule | Fold changes in cell viability (CI-CB-CD34+ cells) | Fold changes in cell viability (TF1 cells) | significant modulation of gene expression [1] | other results
1 | Cc1ccc(-c2cn3c4c(sc3n2)CCCC4)cc1 [Cyclic-pifithrin alpha, Cyclic Pifithrin-a] | 1.17 | 1.12 | – | –
2 | CN(C)C(=N)N=C(N)N [MT-117, Metformin] | – | – | significantly (p-value≤0.05) modulate | Log2 fold changes in gene expression: CYP2C19 [2]: −0.03; Log2 fold changes in gene expression: CYP3A4 [2]: 0
3 | CO[C@H]1/C=C/O[C@@]2(C)Oc3c(C)c(O)c4c(O)c(c(/C=N/N5CCN(C)CC5)c(O)c4c3C2=O)NC(=O)/C(C)=C\C=C\[C@H](C)[C@H](O)[C@@H](C)[C@@H](O)[C@@H](C)[C@H](OC(C)=O)[C@@H]1C [MT-901, Rifampicin] | – | – | – | Cuffdiff log2fc, CYP2C19 (hepatocytes): 1.75
4 | Cc1ccc(C(=O)Cn2c3c(sc2=N)CCCC3)cc1 [Pifithrin alpha, Pifithrin-α] | 1.08 | 1.23 | – | –
5 | BMP2 (protein, UniProt P12643 283-396, looked up) Bone morphogenetic protein 2: QAKHKQRKRLKSSCKRHPLYVDFSDVGWNDWIVAPPGYHAFYCHGECPFPLADHLNSTNHAIVQTLVNSVNSKIPKACCVPTELSAISMLYLDENEKVVLKNYQDMVVEGCGCR | – | – | significantly (p-value≤0.05) modulate | Number (#) of genes having significantly changed expression ([1]; pilot RNA-seq study of Example 2, significance: FPKM≥0.5, log 2(fold change)≥1, q-value ≤0.05): 5

Reference: US20210254056A1, “IDENTIFICATION AND TARGETED MODULATION OF GENE SIGNALING NETWORKS” (CAMP4 THERAPEUTICS CORPORATION, priority 2017, published 2021)
